For 1 molecule, IC50 results are on record in US8779142B2, “Azabicyclo compound and salt thereof” (Taiho Pharmaceutical Co., Ltd., priority 2009, dated 2014).

The subject of the assay is SK-BR-3 cells. The assay is described as follows: Measurement of cell growth inhibition (crystal violet staining method). The format is cell-based. The conditions noted are these: read-out: Cell growth inhibition IC50; breast cancer SK-BR-3 cells, 72 hr culture with test substance.

pIC50: −log10 of the molar value.

The term pIC50 denotes the negative decadic logarithm of the IC50, by convention in mol/L.

Turning to `CC(=O)N(c1cc(-n2nc(C(C)C)c3c(-c4cnc5ccccc5c4)ccnc32)ccc1C(N)=O)C1CCNCC1`, the pIC50 was 8.00.
